Measurements from published antibiotic growth screens (doi:10.1038/s41589-023-01349-8).
Some of the results follow.

What follows are compounds tested on A. baumannii ATCC 17978 (assay: relative growth (fraction of control); higher = less inhibition). Settings: 50 µM.

SMILES	relative growth
NC1=NC(=O)[C@@H]2N=C(Br)N([C@H]3O[C@H]4COP(=O)(O)O[C@@H]4[C@@H]3O)[C@H]2N1	0.936
COCCNC(=O)C[C@H]1C[C@H]2c3cc(NC(=O)COC)ccc3O[C@H]2[C@@H](CO)O1	1.05
NCC[C@H]1CC[C@H](NC(=O)C2CCCCC2)[C@H](CO)O1	0.857
CC(=O)OC/C=C(C)/C=C/C=C(C)/C=C/C1=C(C)CCCC1(C)C	0.965
NS(=O)(=O)c1cc2c(cc1Cl)N=C(CSCc1ccccc1)NS2(=O)=O	0.986
Cc1ccc(S(=O)(=O)N[C@@H]2CC[C@@H](CC(=O)NCc3ccc(Cl)c(Cl)c3)O[C@H]2CO)cc1	0.995
O=C(C[C@H]1C=C[C@H](NC(=O)c2cccnc2)[C@H](CO)O1)NCc1ccncn1	0.909
C[C@H]1C/C(=C\N(C)C)C(=O)C1=O	0.803
CCC[C@H](N[C@@H](C)C(=O)N1[C@H](C(=O)O)C[C@@H]2CCCC[C@@H]21)C(=O)O	1.06
C[C@@H]1CN([C@H](C)CO)S(=O)(=O)c2ccc(C#CC(C)(C)O)cc2O[C@@H]1CN(C)C(=O)C1CCCCC1	0.901
CCC[C@@H]1C[C@@H](C(=O)N[C@H]([C@H]2O[C@H](SC)[C@H](O)[C@@H](O)[C@H]2O)[C@H](C)O)N(C)C1.Cl	0.862
NC(=S)c1cnc(-c2ccncc2)nc1N	0.934
COCC(=O)N(C)C[C@H]1Oc2cc(C#CCN(C)C)ccc2S(=O)(=O)N([C@H](C)CO)C[C@H]1C	1.05
CC(=O)Oc1c(C)cccc1C(=O)O	1.04
COc1cccc(C#Cc2cnc3c(c2)C(=O)N([C@H](C)CO)C[C@@H](C)[C@@H](CN(C)C(=O)C2CCC2)O3)c1	0.697
CO[C@@H](CN(C)S(=O)(=O)c1cccc(Cl)c1)[C@@H](C)CN([C@H](C)CO)S(=O)(=O)c1cccc(Cl)c1	0.914
Cc1cc(NC(=O)C(=O)NC[C@H]2CCCO2)n(-c2nc(=O)cc(C)[nH]2)n1	1.09
CC(C)CC#Cc1ccc2c(c1)O[C@H](CN(C)S(=O)(=O)c1cccc(F)c1)[C@@H](C)CN([C@@H](C)CO)S2(=O)=O	1.41
NC(=O)CSc1nnnn1-c1ccccc1	0.965
CS(=O)(=O)c1ccc([C@@H](O)[C@@H](CO)NC(=O)C(Cl)Cl)cc1	0.925
Cc1ccc(Cn2nnc3c(=O)n(CC(N)=O)cnc32)cc1	0.869
O=c1[nH]c(=O)n(C2C[C@H](O)[C@@H](CO)O2)cc1C(F)(F)F (some centres not stated)	0.984

SMILES	relative growth
Cl.Nc1c(Br)cc(Br)cc1CNC1CCC(O)CC1 (configuration not stated)	0.769
Clc1ccc(COC(Cn2ccnc2)c2ccc(Cl)cc2Cl)c(Cl)c1.O=[N+]([O-])O (configuration not stated)	1.13
O=c1[nH]cc(F)c(=O)[nH]1	0.882
CCc1ccc(NC(=N)N=C(N)N)cc1	0.987
COc1ccc(Cc2nn[nH]n2)cc1	0.977
O=C1CSC(=Nc2nccs2)N1	0.915
CN(C)c1n[nH]c(=O)[nH]c1=O	1.12
O=c1cc(-c2cc(O)c(O)c(O)c2)oc2cc(O)cc(O)c12	0.822
O=C(C[C@@H]1C=C[C@H](NC(=O)c2ccncc2)[C@H](CO)O1)NCc1ccncn1	1.09
CC[C@@H]1COCCC(=O)N1	0.92
O=C(Nc1cc(Cl)cc(Cl)c1O)c1c(O)c(Cl)cc(Cl)c1Cl	0.681
CCOC[C@@H](O)CS(=O)(=O)c1ccccn1	1.04
O=C(N[C@@H]1CC[C@@H](CC(=O)N2CCOCC2)O[C@@H]1CO)c1ccccn1	1
CN(C)C(=O)Cn1c(=O)oc2ccccc21	1.02
CO[C@H]1CN(C)C(=O)c2ccc(NC(=O)c3ccc(F)cc3)cc2OC[C@H](C)N(C(=O)CN(C)C)C[C@H]1C	1.15
C[C@@H]1CC(=O)NN=C1c1ccc(NN=C(C#N)C#N)cc1	0.958
CC(=O)Nc1c(C)[nH]c2ncnn2c1=O	0.974
OC[C@H](O)C(O)[C@@H](O)CO	1.11
C[C@H]1CN([C@@H](C)CO)S(=O)(=O)c2ccc(C#CC3CC3)cc2O[C@H]1CN(C)C(=O)C1CCCCC1	0.914
O=C(C[C@H]1C=C[C@@H](NS(=O)(=O)c2ccc(F)cc2)[C@H](CO)O1)NCCN1CCCCC1	0.974
Cc1cn([C@H]2C[C@@H](NC(=O)C(C)(C)C)[C@@H](CO)O2)c(=O)[nH]c1=O	1.11
COC(=O)C1=C(C)NC(C)=C(C(=O)OC)C1c1ccccc1[N+](=O)[O-]	1.09

SMILES	relative growth
C=C1C[C@@]23CC[C@@H]4[C@@](C)(CCC[C@@]4(C)C(=O)OC)[C@H]2CC[C@@H]1C3	0.986
Cc1cc(S(=O)(=O)N2CCCO[C@@H]2CNC(=O)C(=O)NCc2ccncc2)ccc1F	1.14
CN1CCN(CCCN2c3ccccc3Sc3ccc(C(F)(F)F)cc32)CC1.Cl.Cl	0.66
N=C(N)SCCN1C(=O)c2ccccc2C1=O	1.21
CCOC(=O)CN(C#N)c1nc(C)cc(C)n1	0.979
Cn1nnnc1SCC(=O)NC(C)(C)C	0.955
COCCOC(=O)N1C(=O)[C@@]2(c3ccccc31)[C@H](C(=O)N1CCc3cc(OC)c(OC)cc3C1)[C@H]1C(=O)O[C@H](c3ccccc3)[C@H](c3ccccc3)N1[C@@H]2c1ccc(O)cc1	1.03
Cc1n[nH]c(=O)nc1NC1CC1	1.02
O=C(CN1CCOCC1)NCC[C@@H]1CC[C@@H](NC(=O)c2ccc3c(c2)OCO3)[C@@H](CO)O1	0.947
O=C([O-])c1cc(=O)c2c(OCC(O)COc3cccc4oc(C(=O)[O-])cc(=O)c34)cccc2o1.[Na+].[Na+]	0.992
O=c1[nH]c(=O)c2cc(Br)ccc2[nH]1	1.09
C[C@H](O)C#Cc1ccc2c(c1)O[C@@H](CN(C)C(=O)c1ccccc1)[C@H](C)CN([C@@H](C)CO)S2(=O)=O	0.918
C[C@@H](O)C#Cc1ccc2c(c1)O[C@@H](CN(C)C(=O)Nc1ccccc1)[C@@H](C)CN([C@@H](C)CO)S2(=O)=O	0.816
Nc1ccc(O)c(C(=O)O)c1	0.936
Cc1noc(C)c1NC(=O)N[C@@H]1CC[C@H](CC(=O)NCCCN(C)C)O[C@H]1CO	0.811
Nc1nc(=O)c2c([nH]1)NCC(CNc1ccc(C(=O)N[C@H](CCC(=O)O)C(=O)O)cc1)=N2	0.901
O=C(C[C@@H]1C=C[C@@H](NS(=O)(=O)c2ccc(F)cc2)[C@H](CO)O1)N1CCC(Cc2ccccc2)CC1	0.879
Cc1cc(OC(=O)c2c(C)cc(O)cc2O)cc(O)c1C(=O)O	0.923
COc1nc(C#N)nc(N2CCCCC2)n1	0.945
CN(C)CCCNC(=O)C[C@H]1CC[C@@H](NS(=O)(=O)c2ccccc2)[C@@H](CO)O1	1.06
C[n+]1c2cc(N)ccc2cc2ccc(N)cc21.[Cl-]	0.389
C=CCN1C(=O)[C@]2(O[C@H](CCn3cc(CCO)nn3)[C@@H]([Si](C)(C)c3ccc(OC)cc3)[C@@H]2C)c2cc(N3CCC3=O)ccc21	0.736

SMILES	relative growth
C[C@@H]1CN([C@H](C)CO)C(=O)c2cc(C#CC3(O)CCCC3)cnc2O[C@H]1CN(C)S(=O)(=O)c1ccc(F)cc1	0.976
CO[C@@]1(NC(=O)C2SC(=C(C(N)=O)C(=O)O)S2)C(=O)N2C(C(=O)O)=C(CSc3nnnn3C)CS[C@@H]21 (some centres not stated)	0.315
Cc1cc(NC(=O)C2=C(O)c3ccccc3S(=O)(=O)N2C)no1	0.899
CO[C@@H]1[C@@H](O[C@@H]2O[C@H](C)[C@@H](O[C@H]3C[C@@](C)(O)[C@H](O)[C@H](C)O3)[C@H](N(C)C)[C@H]2O)[C@@H](CC=O)C[C@@H](C)[C@@H](O[C@H]2CC[C@H](N(C)C)[C@@H](C)O2)/C=C/C=C/C[C@H](C)OC(=O)C[C@H]1O	0.805
O=C(N[C@H]1CC[C@@H](CCNS(=O)(=O)c2ccc(F)cc2)O[C@@H]1CO)C1CC1	1.09
CC(C)NC(=O)N(C)C[C@H]1Oc2cc(C#Cc3cccc(F)c3)ccc2S(=O)(=O)N([C@H](C)CO)C[C@@H]1C	0.903
CN(C)CC(c1ccc(O)cc1)C1(O)CCCCC1.O=C(O)CCC(=O)O (configuration not stated)	0.946
CN1C[C@@H](O)COC[C@@H]2O[C@@H](CC(=O)N3CCN(c4ccccc4)CC3)CC[C@H]21	0.978
COCC(=O)N(C)C[C@@H]1Oc2cc(C#CC(C)(C)O)ccc2S(=O)(=O)N([C@H](C)CO)C[C@H]1C	1.08
C[C@H]1CNC(=O)O1	1.17
CCCCOc1cc(C(=O)OCCN(CC)CC)ccc1N.Cl	0.868
C=CCN1C(=O)[C@@H]2[C@@H](C1=O)[C@@H]1C=C[C@@H]2C1	0.97
O=C(CN1CCOCC1)N[C@H]1CC[C@@H](CCNC(=O)Nc2cc(F)ccc2F)O[C@H]1CO	0.829
CC1CC[C@@]2(OC1)O[C@H]1CC3C4CC[C@@H]5C[C@@H](O)CC[C@]5(C)C4CC[C@]3(C)[C@H]1[C@@H]2C (some centres not stated)	0.766
N#Cc1cnc2c(C(N)=O)cnn2c1N	1.04
Nc1ccc(S(=O)(=O)Nc2ncccn2)cc1	1.03
C=CCC[C@@H](Cc1ccc(F)cc1)C(=O)O[C@H](CNC(=O)[C@@H](CC=C)CC(=O)N[C@H](CO)Cc1ccccc1)c1ccccc1	0.967
COc1ccc(N2C(=O)N3CCc4cc(OC)c(OC)cc4[C@@H]3[C@@H](Cc3ccccc3)[C@H]2COC(=O)NCCCCCC(=O)NO)cc1	0.99
C[C@H](O)C#Cc1ccc2c(c1)O[C@H](CN(C)C(=O)Nc1ccccc1)[C@H](C)CN([C@@H](C)CO)S2(=O)=O	1.08
O=C(CCCCCNC(=O)OC[C@]12N=C3SCc4ccccc4CN3[C@H](c3ccccc3O1)[C@H]2COC(=O)c1ccccc1)NO	0.921
C[C@H]1CN([C@@H](C)CO)S(=O)(=O)c2ccc(C#Cc3ccc(F)cc3)cc2O[C@H]1CN(C)S(=O)(=O)c1ccc(F)cc1	0.903
